Values of other authors, collected in US20240082360A1, “METHODS TO TREAT HEPATITIS DELTA VIRAL INFECTIONS” (Eiger Biopharmaceuticals, Inc., priority 2019, published 2024).

Test system: HDV
Conditions: 24 weeks after the end of treatment; assay LOD 120 copies/mL of serum; cited from earlier work

peginterferon alfa-2a: peginterferon alfa-2a therapy used in the HIDIT-1 and -2 studies
subjects who achieved undetectable HDV RNA: 23-31%
